Stoichiometry N data for one substance are collected here from PMC8625570.

This test addresses RAC1 (aa 1-179) (human) (UniProt P63000). As to the kind of experiment: SEC; analytical SEC, Superdex 200 10/300, 30 mM Tris/HCl pH 7.5, 150 mM NaCl, 5 mM MgCl2; IQGAP1^C794 and IQGAP2^C795 alone or mixed with CDC42•GppNHp or RAC1•GppNHp; fractions on Coomassie-stained SDS-PAGE; MW from a calibration curve. (In general: In gel filtration, larger molecules generally elute earlier.)

“RAC1 (aa 1-179) (from UniProt P63000 1-179) (natural protein)”: the stoichiometry N (commonly a count of units in the complex or per binding partner) is 2.
